{
  "source": "paper PMC8414367",
  "about": "“(E)-7-Ethylidene-lithocholic Acid (7-ELCA) Is a Potent Dual Farnesoid X Receptor (FXR) Antagonist and GPBAR1 Agonist Inhibiting FXR-Induced Gene Expression in Hepatocytes and Stimulating Glucagon-like Peptide-1 Secretion From Enteroendocrine Cells” (Frontiers in Pharmacology, 2021)",
  "target": "T1, human FXR (Homo sapiens, UniProt Q96RI1)",
  "T1 sequence (Q96RI1 1-486)": "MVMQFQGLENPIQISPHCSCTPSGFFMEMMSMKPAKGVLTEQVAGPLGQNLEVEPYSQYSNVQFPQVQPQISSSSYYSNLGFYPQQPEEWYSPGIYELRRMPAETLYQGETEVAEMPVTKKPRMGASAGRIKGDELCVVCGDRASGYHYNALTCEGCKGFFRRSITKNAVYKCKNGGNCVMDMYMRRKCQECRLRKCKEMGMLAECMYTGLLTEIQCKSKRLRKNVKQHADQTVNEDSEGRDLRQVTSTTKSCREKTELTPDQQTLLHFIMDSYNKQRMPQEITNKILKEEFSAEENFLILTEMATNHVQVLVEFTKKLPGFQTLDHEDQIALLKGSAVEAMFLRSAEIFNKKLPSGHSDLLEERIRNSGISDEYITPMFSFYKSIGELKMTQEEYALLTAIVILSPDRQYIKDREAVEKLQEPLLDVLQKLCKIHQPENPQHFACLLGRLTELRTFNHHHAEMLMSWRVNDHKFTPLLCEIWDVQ",
  "T1 sequence (P19793 1-462 partner)": "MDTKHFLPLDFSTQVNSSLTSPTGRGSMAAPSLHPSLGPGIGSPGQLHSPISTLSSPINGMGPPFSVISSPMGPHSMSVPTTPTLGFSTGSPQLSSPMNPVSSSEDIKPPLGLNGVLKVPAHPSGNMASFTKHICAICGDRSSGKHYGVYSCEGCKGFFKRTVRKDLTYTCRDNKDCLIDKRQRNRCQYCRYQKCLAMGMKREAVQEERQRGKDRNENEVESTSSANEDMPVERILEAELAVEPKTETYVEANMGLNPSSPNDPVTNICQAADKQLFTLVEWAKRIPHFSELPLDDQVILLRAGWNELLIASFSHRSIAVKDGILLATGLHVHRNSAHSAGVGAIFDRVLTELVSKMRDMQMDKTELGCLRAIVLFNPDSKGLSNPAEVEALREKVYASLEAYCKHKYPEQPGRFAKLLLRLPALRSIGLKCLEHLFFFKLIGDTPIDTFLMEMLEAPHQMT",
  "test": "FXR luciferase reporter gene assay (FXRE-luc) in HepG2 cells, antagonistic mode",
  "format": "cell-based",
  "conditions": "at 100 µM, with 1 µM OCA",
  "data": [
    {"smiles": "C/C=C1\\C(=O)C[C@H]2[C@@H]3CCC4=CC(=O)CC[C@]4(C)[C@H]3CC[C@]12C", "note": "[Z-GUG, Z-guggulsterone, reference compound]", "values": [
      {"measurement": "inhibition of FXR activation", "value": 70, "unit": "%"}
    ]}
  ]
}
